Legend:
LCK [1] = target: T1, LCK (Homo sapiens, UniProt P06239); experiment: Binding kinetics assay (surface plasmon resonance) LCK; settings: SPR, 22 °C
Excerpt: (§1) Binding Kinetics Assay wt-BTK, BTK C481S, LCK, FGFR1, FLT3, PDGFR-β, FMS, LYN, MEK1, AUR-B. ITK. VEGFR, EGFR, FGFR3, AXL, c-MET, SRC, YES, ABL, RET and IGFR1 (Surface Plasmon Resonance)
(§2) Streptavidin-coated chips (Cat. No. BR100531), disposables and maintenance kits for Biacore were purchased from Cytiva (Eindhoven, The Netherlands). Biotinylated wt-BTK enzym (Carna Biosciences, cat. no. 08-480-20N), BTK C481S (Carna Biosciences, cat. no. 08-417-20N), LCK (Carna Biosciences, cat. no. 08-470-20N), FGFR1 (Carna Biosciences, cat. no. 08-435-20N), FLT3 (Carna Biosciences, cat. no. 08-454-20N), PDGFR-β (Carna Biosciences, cat. no. 08-458-20N), FMS (Carna Biosciences, cat. no. 08-455-20N), LYN (Carna Biosciences, cat. no. 08-471-20N), MEK1 (Carna Biosciences, cat. no. 07-441-10-20N), AUR-B (Carna Biosciences, cat. no. 05-402-21N), ITK (Carna Biosciences, cat. no. 08-481-20N), VEGFR (Carna Biosciences, cat. no. 08-491-20N), EGFR (Carna Biosciences, cat. no. 08-415-20N), FGFR3 (Carna Biosciences, cat. no. 08-433-20N), AXL (Carna Biosciences, cat. no. 08-407-20N), c-MET (Carna Biosciences, cat. no. 08-451-20N), SRC (Carna Biosciences, cat. no. 08-473-20N), YES (Carna Biosciences, cat. no. 08-475-20N), ABL (Carna Biosciences, cat. no. 08-401-20N), RET (Carna Biosciences, cat. no. 08-459-20N) or IGFR1 (Carna Biosciences, cat. no. 08-441-20N) were immobilized on a streptavidin-coated chip to a level of about 8000 resonance units (RU) using Biacore buffer (50 mM Tris pH 7.5, 0.05% (v/v) Tween-20, 150 mM NaCl and 5 mM MgCl2)+1 mM TCEP. Remaining streptavidin was blocked with biocytin. Immobilization was performed at 4 °C. Subsequent assay steps were conducted at 22 °C. After changing buffer to Biacore buffer with 1% (v/v) dimethylsulfoxide (DMSO), a pre-run was performed for a period of at least 30 min at a flow rate of 30 μl/min to obtain a stable surface. The kinetic constants of the compounds were determined with single cycle kinetics with five consecutive injections with an increasing compound concentration with ranges of 3.16-316 nM. Experiments were performed with an association time of 100 s per concentration and a dissociation time of 1200 s, except for compounds with a long target residence time, such as irreversible inhibitors, where dissociation time was increased. To circumvent problems of mass transport limitation, a flow rate of 30 μl/min was used. A blank run with the same conditions was performed before the compound was injected. The SPR sensorgrams were analyzed with Biacore Evaluation Software by using a method of double referencing. First the reference channel was subtracted from the channel containing immobilized protein. Subsequently, the reference curve obtained with buffer injections was subtracted. The resulting curve was fitted with a 1:1 binding model. Compounds that bound according to an induced fit model were fitted with a two-state reaction model. The kinetic constants (ka, ka, KD) of duplicates were geometrically averaged. Target residence time (τ) for the 1:1 binding model was calculated from the dissociation constant kd with the formula T=1/kd. Target residence for an induced fit model was calculated as described (Tummino and Copeland, 2008).

Protein sequences, listed by entry. Tags and fused reporters are not part of them. Residues count along the entry.
UniProt P06239, whole entry: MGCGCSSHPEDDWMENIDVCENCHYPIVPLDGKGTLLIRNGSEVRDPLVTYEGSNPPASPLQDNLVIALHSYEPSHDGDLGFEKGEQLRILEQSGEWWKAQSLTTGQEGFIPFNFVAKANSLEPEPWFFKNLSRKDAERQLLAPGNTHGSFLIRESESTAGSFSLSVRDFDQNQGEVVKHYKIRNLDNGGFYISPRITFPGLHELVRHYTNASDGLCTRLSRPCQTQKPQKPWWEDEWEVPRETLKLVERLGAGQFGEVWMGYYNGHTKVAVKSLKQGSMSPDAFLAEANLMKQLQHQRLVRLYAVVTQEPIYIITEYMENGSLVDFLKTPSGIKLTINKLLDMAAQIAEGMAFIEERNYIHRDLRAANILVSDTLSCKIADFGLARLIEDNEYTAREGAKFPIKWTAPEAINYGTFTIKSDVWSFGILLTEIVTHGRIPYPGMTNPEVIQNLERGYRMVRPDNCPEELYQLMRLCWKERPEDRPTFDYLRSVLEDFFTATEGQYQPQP
UniProt P00519, whole entry: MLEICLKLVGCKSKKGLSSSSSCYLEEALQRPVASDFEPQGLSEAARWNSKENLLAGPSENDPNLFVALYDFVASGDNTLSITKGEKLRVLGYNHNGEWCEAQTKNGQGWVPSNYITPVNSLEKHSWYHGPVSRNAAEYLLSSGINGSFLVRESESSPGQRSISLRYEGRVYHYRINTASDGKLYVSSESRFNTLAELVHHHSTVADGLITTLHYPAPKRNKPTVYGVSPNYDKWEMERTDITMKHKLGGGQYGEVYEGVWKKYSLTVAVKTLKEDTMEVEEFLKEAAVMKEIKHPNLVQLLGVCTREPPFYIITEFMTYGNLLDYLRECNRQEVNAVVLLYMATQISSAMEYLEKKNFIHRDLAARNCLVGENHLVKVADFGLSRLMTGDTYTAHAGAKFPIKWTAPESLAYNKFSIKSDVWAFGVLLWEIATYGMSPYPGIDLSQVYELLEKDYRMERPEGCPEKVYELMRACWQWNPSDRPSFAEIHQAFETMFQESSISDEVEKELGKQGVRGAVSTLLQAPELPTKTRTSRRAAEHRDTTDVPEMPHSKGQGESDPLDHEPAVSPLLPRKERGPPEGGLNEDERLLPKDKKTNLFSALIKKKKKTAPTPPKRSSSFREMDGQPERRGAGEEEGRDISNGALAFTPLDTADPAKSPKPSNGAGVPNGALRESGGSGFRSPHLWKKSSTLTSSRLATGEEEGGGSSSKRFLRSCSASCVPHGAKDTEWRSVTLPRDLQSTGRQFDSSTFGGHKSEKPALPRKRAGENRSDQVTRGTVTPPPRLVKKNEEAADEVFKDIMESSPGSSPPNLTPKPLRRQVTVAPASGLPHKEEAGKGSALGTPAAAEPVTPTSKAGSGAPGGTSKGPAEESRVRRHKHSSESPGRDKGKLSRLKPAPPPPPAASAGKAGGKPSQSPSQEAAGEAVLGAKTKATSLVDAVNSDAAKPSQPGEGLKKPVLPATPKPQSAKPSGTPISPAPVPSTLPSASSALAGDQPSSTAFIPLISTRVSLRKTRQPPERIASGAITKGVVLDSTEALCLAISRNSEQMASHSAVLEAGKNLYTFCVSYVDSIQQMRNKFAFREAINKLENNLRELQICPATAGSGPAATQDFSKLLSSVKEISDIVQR
UniProt P30530, 26-894 limits assumed: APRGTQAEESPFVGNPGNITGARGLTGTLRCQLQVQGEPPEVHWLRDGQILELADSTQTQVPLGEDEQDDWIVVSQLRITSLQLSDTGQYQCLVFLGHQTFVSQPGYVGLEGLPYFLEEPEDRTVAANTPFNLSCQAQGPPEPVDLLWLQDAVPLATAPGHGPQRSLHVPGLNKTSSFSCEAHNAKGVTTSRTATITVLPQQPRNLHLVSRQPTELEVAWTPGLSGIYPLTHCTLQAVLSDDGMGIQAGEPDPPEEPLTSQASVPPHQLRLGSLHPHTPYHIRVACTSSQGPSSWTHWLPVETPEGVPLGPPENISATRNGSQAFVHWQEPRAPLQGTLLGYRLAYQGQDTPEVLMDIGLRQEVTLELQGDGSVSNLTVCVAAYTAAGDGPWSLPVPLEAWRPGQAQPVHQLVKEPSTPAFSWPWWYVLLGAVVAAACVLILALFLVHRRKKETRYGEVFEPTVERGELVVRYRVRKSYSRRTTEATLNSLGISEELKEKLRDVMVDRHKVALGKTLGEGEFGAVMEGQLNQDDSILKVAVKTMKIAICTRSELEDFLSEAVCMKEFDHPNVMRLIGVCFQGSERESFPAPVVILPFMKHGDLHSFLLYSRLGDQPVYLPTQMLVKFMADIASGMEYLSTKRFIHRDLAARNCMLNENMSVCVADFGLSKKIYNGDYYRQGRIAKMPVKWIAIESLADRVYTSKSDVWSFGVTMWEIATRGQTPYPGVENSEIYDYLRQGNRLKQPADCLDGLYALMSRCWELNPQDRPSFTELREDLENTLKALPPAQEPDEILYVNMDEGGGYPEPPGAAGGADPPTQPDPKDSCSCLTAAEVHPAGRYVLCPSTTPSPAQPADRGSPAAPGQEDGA
UniProt P00533, 25-1210 limits assumed: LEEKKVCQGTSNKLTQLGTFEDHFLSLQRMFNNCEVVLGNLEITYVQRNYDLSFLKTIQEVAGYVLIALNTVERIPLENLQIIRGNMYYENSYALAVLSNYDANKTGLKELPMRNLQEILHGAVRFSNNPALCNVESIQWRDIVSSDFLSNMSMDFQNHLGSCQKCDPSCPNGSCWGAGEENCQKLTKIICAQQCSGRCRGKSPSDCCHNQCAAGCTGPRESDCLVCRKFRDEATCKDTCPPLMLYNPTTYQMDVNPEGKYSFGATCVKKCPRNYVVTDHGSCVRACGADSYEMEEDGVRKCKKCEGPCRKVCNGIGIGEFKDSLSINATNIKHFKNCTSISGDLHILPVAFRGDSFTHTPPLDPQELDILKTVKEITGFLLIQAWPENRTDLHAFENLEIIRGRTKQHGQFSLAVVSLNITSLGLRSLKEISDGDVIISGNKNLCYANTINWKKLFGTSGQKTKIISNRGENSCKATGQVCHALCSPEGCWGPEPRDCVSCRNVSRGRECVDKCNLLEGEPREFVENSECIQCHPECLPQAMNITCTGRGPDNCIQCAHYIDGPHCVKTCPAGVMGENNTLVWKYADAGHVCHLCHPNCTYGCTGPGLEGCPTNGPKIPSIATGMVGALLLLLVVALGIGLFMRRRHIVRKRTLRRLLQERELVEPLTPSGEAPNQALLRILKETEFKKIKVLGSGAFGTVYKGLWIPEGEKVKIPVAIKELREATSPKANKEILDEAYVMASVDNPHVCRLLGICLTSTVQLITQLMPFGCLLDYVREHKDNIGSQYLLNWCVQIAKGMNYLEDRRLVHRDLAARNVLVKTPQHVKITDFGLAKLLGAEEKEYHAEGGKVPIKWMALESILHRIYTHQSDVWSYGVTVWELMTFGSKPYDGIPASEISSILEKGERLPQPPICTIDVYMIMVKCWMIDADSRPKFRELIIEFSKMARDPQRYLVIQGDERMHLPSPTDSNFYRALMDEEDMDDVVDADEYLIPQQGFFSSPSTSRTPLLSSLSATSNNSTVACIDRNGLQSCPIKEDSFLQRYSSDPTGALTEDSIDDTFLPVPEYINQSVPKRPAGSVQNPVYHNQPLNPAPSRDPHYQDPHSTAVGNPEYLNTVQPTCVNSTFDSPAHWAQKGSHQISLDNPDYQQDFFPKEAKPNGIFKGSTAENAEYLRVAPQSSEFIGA
UniProt P12931, whole entry: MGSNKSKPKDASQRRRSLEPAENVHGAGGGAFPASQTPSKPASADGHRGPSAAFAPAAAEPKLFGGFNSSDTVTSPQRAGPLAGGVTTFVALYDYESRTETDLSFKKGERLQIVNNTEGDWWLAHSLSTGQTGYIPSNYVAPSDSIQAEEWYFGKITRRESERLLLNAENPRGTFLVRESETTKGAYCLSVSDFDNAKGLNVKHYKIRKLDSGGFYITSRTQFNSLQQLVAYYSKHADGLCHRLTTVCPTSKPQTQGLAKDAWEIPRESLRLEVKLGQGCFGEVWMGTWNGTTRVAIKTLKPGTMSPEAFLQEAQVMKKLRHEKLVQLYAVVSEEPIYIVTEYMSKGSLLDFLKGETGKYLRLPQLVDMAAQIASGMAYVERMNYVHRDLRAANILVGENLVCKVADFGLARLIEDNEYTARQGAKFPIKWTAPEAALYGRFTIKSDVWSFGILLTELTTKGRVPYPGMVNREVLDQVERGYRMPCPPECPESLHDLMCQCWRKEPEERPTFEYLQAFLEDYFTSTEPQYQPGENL
UniProt P11362, 398-822 limits assumed: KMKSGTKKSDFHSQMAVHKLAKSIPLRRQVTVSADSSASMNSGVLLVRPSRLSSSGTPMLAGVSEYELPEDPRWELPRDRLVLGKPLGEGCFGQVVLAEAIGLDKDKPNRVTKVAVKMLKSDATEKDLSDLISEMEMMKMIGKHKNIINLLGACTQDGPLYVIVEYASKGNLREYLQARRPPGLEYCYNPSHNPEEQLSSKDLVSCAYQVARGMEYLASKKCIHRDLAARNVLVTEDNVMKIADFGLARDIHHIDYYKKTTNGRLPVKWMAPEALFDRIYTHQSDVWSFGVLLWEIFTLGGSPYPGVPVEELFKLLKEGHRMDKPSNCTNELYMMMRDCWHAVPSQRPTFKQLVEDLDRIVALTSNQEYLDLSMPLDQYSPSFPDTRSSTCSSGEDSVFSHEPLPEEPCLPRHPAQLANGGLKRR
UniProt P22607, 436-806 limits assumed: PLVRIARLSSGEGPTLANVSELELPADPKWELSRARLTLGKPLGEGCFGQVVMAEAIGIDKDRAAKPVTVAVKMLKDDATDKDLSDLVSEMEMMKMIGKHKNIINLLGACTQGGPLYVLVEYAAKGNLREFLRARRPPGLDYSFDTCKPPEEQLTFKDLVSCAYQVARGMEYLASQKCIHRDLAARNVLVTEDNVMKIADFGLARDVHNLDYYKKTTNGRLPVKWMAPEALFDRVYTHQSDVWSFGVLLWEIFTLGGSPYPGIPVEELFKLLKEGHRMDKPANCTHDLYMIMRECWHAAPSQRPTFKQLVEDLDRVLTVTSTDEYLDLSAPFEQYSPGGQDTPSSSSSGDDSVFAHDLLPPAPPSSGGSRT
UniProt P07947, whole entry: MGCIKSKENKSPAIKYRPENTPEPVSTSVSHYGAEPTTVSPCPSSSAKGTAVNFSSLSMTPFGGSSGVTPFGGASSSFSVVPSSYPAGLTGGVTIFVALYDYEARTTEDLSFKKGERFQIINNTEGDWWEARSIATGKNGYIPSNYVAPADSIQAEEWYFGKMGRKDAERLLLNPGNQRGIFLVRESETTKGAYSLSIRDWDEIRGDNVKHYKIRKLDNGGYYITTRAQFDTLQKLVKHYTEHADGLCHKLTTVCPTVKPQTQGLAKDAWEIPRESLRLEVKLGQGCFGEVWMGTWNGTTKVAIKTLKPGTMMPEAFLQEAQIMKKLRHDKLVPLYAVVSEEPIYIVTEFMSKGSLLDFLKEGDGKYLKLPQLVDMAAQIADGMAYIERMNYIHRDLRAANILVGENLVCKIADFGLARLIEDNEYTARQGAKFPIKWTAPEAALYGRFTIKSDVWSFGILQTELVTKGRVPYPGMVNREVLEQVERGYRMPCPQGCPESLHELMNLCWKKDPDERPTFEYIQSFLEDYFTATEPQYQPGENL

LCK [2] = target: T1, LCK; experiment: Biochemical kinase assay LCK (IMAP); settings: read-out: IC50 value; LCK 2.9 nM, 4 μM ATP, 1 h pre-incubation, 2 h reaction
Protocol: Biochemical Kinase Assay LCK
To determine the inhibitory activity of compounds on LCK enzyme activity, the IMAP® assay (Molecular Devices) was used. Compounds were serially diluted in dimethylsulfoxide (DMSO) and subsequently in 4% DMSO in IMAP reaction buffer, which consists of 10 mM Tris-HCl, pH 15 7.5, 10 mM MgCl2, 0.01% Tween-20, 0.1% NaN3 and 1 mM freshly prepared dithiotreitol (DTT). Compound solution was mixed with an equal volume of full-length Lck enzyme (Carna Biosciences, cat. no. 08-170) in IMAP reaction buffer. After pre-incubation of 1 hour in the dark at room temperature, fluorescein-labeled MBP-derived substrate peptide (Molecular Devices, cat. no. RP 7123) was added, followed by ATP to start the reaction. Final enzyme concentration was 2.9 nM final substrate concentration 100 nM, and final ATP concentration was 4 μM. The reaction was allowed to proceed for 2 hours at room temperature in the dark. The reaction was stopped by quenching with IMAP progressive binding solution according to the protocol of the manufacturer (Molecular Devices). Fluorescein polarization was measured on an Envision multimode reader (Perkin Elmer, Waltham, MA, U.S.A.). IC50 were calculated using XLfit™5 software (ID Business Solutions, Ltd., Surrey, U.K.).

ABL = ABL (Homo sapiens, UniProt P00519); experiment: Binding kinetics assay (surface plasmon resonance) ABL; settings: SPR, 22 °C
Excerpt: as §1
as §2, with “First the reference channel was subtracted from the channel containing immobilized protein. Subsequently, the reference curve obtained with buffer injections was subtracted. The resulting curve was fitted with a 1:1 binding model. Compounds that bound according to an induced fit model were fitted with a two-state reaction model. The kinetic constants (ka, ka, KD) of duplicates were geometrically averaged.” left out

AXL = AXL (Homo sapiens, UniProt P30530); experiment: Binding kinetics assay (surface plasmon resonance) AXL; settings: SPR, 22 °C
Excerpt: as §1, §2

EGFR = EGFR (Homo sapiens, UniProt P00533); experiment: Binding kinetics assay (surface plasmon resonance) EGFR; settings: SPR, 22 °C
Excerpt: as §1, §2

SRC = SRC (Homo sapiens, UniProt P12931); experiment: Binding kinetics assay (surface plasmon resonance) SRC; settings: SPR, 22 °C
Excerpt: as §1, §2

FGFR1 = FGFR1 (Homo sapiens, UniProt P11362); experiment: Binding kinetics assay (surface plasmon resonance) FGFR1; settings: FGFR1, SPR, 22 °C
Excerpt: as §1
as §2, with “First the reference channel was subtracted from the channel containing immobilized protein. Subsequently, the reference curve obtained with buffer injections was subtracted. The resulting curve was fitted with a 1:1 binding model. Compounds that bound according to an induced fit model were fitted with a two-state reaction model. The kinetic constants (ka, ka, KD) of duplicates were geometrically averaged.” left out

FGFR3 = FGFR3 (Homo sapiens, UniProt P22607); experiment: Binding kinetics assay (surface plasmon resonance) FGFR3; settings: FGFR3, SPR, 22 °C
Excerpt: as §1, §2

YES = YES (Homo sapiens, UniProt P07947); experiment: Binding kinetics assay (surface plasmon resonance) YES; settings: SPR, 22 °C
Excerpt: as §1, §2

| Kd (LCK [1]) [nM] | IC50 (LCK [2]) [nM] | Kd (ABL) [nM] | Target residence time Tau (τ) (ABL) | Kd (AXL) [nM] | Target residence time Tau (τ) (AXL) | Kd (EGFR) [nM] | Target residence time Tau (τ) (EGFR) | Target residence time Tau (τ) (LCK [1]) | Kd (SRC) [nM] | Target residence time Tau (τ) (SRC) | Kd (FGFR1) [nM] | Target residence time Tau (τ) (FGFR1) | Kd (FGFR3) [nM] | Target residence time Tau (τ) (FGFR3) | Kd (YES) [nM] | Target residence time Tau (τ) (YES) | Structure (SMILES) |
| --- | --- | --- | --- | --- | --- | --- | --- | --- | --- | --- | --- | --- | --- | --- | --- | --- | --- |
| < 5 | < 5 |  |  |  |  |  |  |  |  |  |  |  |  |  |  |  | COc1cc(-c2nc3n4c(cnc(C)c24)/C=C/CCOCCC(=O)N[C@@H]2CC[C@@H]3C2)ccc1NC(=O)c1cc2c(OC)cccc2n1C |
| < 5 |  | < 5 | B (τ between 1 and 3 h) | 5 to 50 | A (τ between 0.2 h and 1 h) | 5 to 50 | A (τ between 0.2 h and 1 h) | A (τ between 0.2 h and 1 h) | 5 to 50 | A (τ between 0.2 h and 1 h) |  |  |  |  |  |  | COc1cc(-c2nn3c4c(cnc(N)c24)/C=C/CCOCCC(=O)N[C@H](C)CC3)ccc1NC(=O)OC(C)(C)C |
|  |  |  |  |  |  |  |  |  |  |  | 5 to 50 | A (τ between 0.2 h and 1 h) | 5 to 50 | A (τ between 0.2 h and 1 h) |  |  | COc1cc(C#Cc2nn3c4c(cnc(N)c24)/C=C/CCCCCC(=O)N[C@@H]2CCC[C@@H]3C2)cc(OC)c1 |
| < 5 |  | < 5 | B (τ between 1 and 3 h) | < 5 | B (τ between 1 and 3 h) | 5 to 50 | A (τ between 0.2 h and 1 h) | B (τ between 1 and 3 h) | < 5 | B (τ between 1 and 3 h) |  |  |  |  | 50 to 500 | A (τ between 0.2 h and 1 h) | COc1cc(-c2nn3c4c(cnc(N)c24)/C=C/CCCCCC(=O)N[C@H](C)CC3)ccc1NC(=O)OC(C)(C)C |

From patent US20260382605A1, “REVERSIBLE MACROCYCLIC KINASE INHIBITORS” (published 2026)
